Tests used:
[1] = target: myosin-5B heavy meromyosin heavy chain (amino acids 1-1095) (murine) (UniProt P21271); experiment: co-sedimentation; 3 uM myosin-5B heavy meromyosin with 15 uM F-actin; 10 mM MOPS pH 7.2, 150 mM NaCl, 0.1 mM EGTA, 3 mM NaN3, free Ca2+ ~0 to 400 uM; 15 min at room temperature, 100,000 x g for 20 min at 4 °C; CaM in supernatant and pellet by gel densitometry
[2] = tested on: Nc1ncnc2c1ncn2[C@@H]1O[C@H](COP(=O)(O)OP(=O)(O)OP(=O)(O)O)[C@@H](O)[C@H]1O; experiment: purified protein; conditions: 30 µM F-actin (rabbit skeletal muscle), 2 mM MgCl2, 50 mM NaCl, 10 mM MOPS pH 7.0, 0.15 mM EGTA, 25 °C

Substance	percent of CaM dissociated from myosin-5B by increasing Ca^2+ [1] [%]	Km [2] [µM]	kcat [2] [s⁻¹]
calmodulin (CaM) (from UniProt P0DP29 1-149) (natural protein)	25		
myosin-5B heavy meromyosin (myosin-5B) (Mus musculus)		59.07 ± 6.95	6.41 ± 0.14
